This experiment deals with T1, MDM2 (Homo sapiens, UniProt Q00987).
T1 construct: The cDNA of MDM2 (7–300 amino acids) was amplified by PCR; made in house; host or cells: wheat germ cell-free translation system (Promega)
The experiment can be described thus: In vitro binding (pull-down) assay of GFP-fused peptides with MDM2 immobilized on IgG beads. Particulars: GFP-fused peptide, fluorescence after SDS-PAGE. The method, then:
To examine the ability of the peptides to bind to MDM2, we constructed plasmids for the expression of GFP-fused peptides and performed pull-down assays between the GFP-fused peptides and MDM2 (Fig. S1). […] As previously reported, inhibition of the MDM2-p53 interaction leads to activation of the p53 pathway, [13], [14].
The GFP-tagged peptide was incubated with MDM2 immobilized on IgG beads for 1 h at 4°C. The beads were washed three times with IPP150, followed by vortexing to elute the bound molecules. The resulting eluate was loaded on a 10% SDS-PAGE gel, and the fluorescence of the GFP tag was detected with a Molecular-Imager FX (BioRad, Richmond, CA, USA).

Chains of the proteins cited; added tags and fusions are not shown. Residues count along the entry.
UniProt Q00987, 1-294: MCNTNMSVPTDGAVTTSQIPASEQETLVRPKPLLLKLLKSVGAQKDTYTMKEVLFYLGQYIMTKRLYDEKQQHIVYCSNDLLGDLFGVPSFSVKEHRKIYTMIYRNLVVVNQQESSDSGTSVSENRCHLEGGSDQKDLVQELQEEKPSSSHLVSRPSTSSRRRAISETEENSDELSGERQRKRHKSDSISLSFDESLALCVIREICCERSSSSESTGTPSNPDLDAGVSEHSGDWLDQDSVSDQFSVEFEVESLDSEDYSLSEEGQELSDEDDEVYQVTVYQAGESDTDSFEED

On to “GFP-p53_13–28: GFP-fused wild-type p53 13–28 peptide (PLSQETFSDLWKLLPE; left off: GFP, end not stated, kept) [reference compound]”, for which the “binding to MDM2 immobilized on beads” value is “not”.
